From patent US20030215462A1, “Use of UGT inhibitors to increase bioavailability” (priority 2001, published 2003)
Like-named read-outs stand apart in the source and are kept apart here.

How the values were obtained:
human liver microsomes = conditions: 2ME2 50 μM
UGT1A3 = target: T1, UGT1A3 (Homo sapiens, UniProt P35503); assay: Substrate glucuronidation by recombinant UGT1A3
T1 sequence (P35503 29-534): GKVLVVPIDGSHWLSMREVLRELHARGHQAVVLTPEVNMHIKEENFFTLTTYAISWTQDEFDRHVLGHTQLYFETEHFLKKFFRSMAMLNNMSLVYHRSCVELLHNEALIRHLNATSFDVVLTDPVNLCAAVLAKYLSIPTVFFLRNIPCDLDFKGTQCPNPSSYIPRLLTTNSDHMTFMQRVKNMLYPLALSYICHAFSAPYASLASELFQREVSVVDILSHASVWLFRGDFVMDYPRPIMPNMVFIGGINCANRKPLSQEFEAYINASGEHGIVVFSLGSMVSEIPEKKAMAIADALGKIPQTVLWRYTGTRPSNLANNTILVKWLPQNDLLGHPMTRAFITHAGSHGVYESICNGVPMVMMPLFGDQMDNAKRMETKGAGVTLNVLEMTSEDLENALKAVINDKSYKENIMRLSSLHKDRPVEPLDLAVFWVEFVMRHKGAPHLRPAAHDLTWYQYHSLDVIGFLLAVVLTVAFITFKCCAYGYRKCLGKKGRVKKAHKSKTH

For `COc1cc2c(cc1O)CC[C@@H]1[C@@H]2CC[C@]2(C)[C@@H](O)CC[C@@H]12` [2ME2, 2-Methoxyestradiol], the “ratio MG1/MG2” value (human liver microsomes; liver 032101) was 3.6, the “relative metabolite level MG1 (peak area relative to MG1 in human liver microsomes)” value (human liver microsomes; liver 032101) was 100 ± 5 and the “relative metabolite level MG2” value (human liver microsomes; liver 032101) was 28 ± 1. For the same molecule, the “ratio MG1/MG2” value (human liver microsomes; liver 062101) was 2.1, the “relative metabolite level MG1” value (human liver microsomes; liver 062101) was 53 ± 0 and the “relative metabolite level MG2” value (human liver microsomes; liver 062101) was 26 ± 0. The “2ME2 metabolic activity as % of the activity of UGT1A10” value (UGT1A3; UGT1A3) was “less than 10%”, the “ratio MG1/MG2” value (UGT1A3; UGT1A3 Supersomes, 2ME2 50 μM) was 10.6 and the “relative metabolite level MG1” value (UGT1A3; UGT1A3 Supersomes, 2ME2 50 μM) was 18 ± 1. The “relative metabolite level MG2” value (UGT1A3; UGT1A3 Supersomes, 2ME2 50 μM) was 1.7 ± 0.1.
